Data on 2 compounds can be found in patent publication US20160160213A1, “METHODS OF TREATING CANCER AND PREVENTING CANCER DRUG RESISTANCE” (Genentech, Inc., priority 2013, published 2016).

The chains behind the UniProt entries cited, without tags or fusion partners.
UniProt Q15910, whole entry: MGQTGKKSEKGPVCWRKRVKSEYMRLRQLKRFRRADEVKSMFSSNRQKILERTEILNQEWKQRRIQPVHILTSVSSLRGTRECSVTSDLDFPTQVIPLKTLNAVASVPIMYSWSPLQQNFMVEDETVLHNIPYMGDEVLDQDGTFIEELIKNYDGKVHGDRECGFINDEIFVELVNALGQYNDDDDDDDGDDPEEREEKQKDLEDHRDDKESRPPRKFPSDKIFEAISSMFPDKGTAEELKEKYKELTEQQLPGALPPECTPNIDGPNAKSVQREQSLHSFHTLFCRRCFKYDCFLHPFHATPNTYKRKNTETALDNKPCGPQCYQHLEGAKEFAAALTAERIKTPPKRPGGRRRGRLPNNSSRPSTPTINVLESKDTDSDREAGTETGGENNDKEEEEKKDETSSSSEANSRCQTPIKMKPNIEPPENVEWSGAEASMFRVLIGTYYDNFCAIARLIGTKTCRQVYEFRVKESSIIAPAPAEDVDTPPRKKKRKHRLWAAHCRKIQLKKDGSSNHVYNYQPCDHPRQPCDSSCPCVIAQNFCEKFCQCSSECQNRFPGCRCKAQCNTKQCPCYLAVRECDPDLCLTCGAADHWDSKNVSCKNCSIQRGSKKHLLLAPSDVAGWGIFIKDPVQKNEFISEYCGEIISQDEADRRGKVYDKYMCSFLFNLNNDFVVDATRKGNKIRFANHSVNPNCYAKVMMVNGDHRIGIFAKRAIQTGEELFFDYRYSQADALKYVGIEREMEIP

Assay [1] concerns the target EZH2 (Homo sapiens, UniProt Q15910). The conditions noted are these: read-out: EZH2 Ki^app; cited from earlier work.
Assay [2] deals with PC9 DTP. As to the kind of experiment: EZH2 inhibitors on PC9 DTP cell growth with erlotinib (IncuCyte, Giemsa). The class given is cell-based, human. The conditions noted are these: erlotinib 1 μM; GSK126 0.1-2.5 μM; EPZ-6438 0.05-1.5 μM; day 9 and 30 days.
Assay [3] has as its system EVSAT DTP. As to the kind of experiment: EZH2 inhibitors on EVSAT DTP cell growth with PI3K inhibitor (IncuCyte). The class given is cell-based. As to conditions: GDC-0908 2 μM; GSK126 0.1, 0.5, 2.5 μM; EPZ-6438 0.05, 0.1, 0.5 μM.

Regarding `CCCc1cc(C)[nH]c(=O)c1CNC(=O)c1cc(-c2ccnc(N3CCN(C)CC3)c2)cc2c1cnn2C(C)C` [Compound 6], in assay [1], the Ki was 1.2 ± 0.2 nM.

On to `CCN(c1cc(-c2ccc(CN3CCOCC3)cc2)cc(C(=O)NCc2c(C)cc(C)[nH]c2=O)c1C)C1CCOCC1` [EPZ-6438, N-((4,6-dimethyl-2-oxo-1,2-dihydropyridin-3-yl)methyl)-5-(ethyl(tetrahydro-2H-pyran-4-yl)amino)-4-methyl-4′-(morpholinomethyl)-[1,1′-biphenyl]-3-carboxamide], for which the “cell growth of PC9 DTP with erlotinib” value in assay [2] is on record as “effective in reducing cell growth in a dose dependent manner”. Besides, the “cell growth of EVSAT DTP with PI3 kinase inhibitor” value in assay [3] is “effective in reducing cell growth in a dose dependent manner”.
